Legend:
[1] = target: T1, Phosphatidylinositol 3,4,5-trisphosphate 5-phosphatase 2 (Homo sapiens, UniProt O15357); experiment: Inhibition of human SHIP-2 (420 to 732 residues) catalytic domain expressed in Rosetta DE3 BL21 cells using -(1,2-dioctanoylphosphatidyflinosito1-3,4,5-trisphosphate as substrate by malachite green based spectramax microplate reader analysis
T1 sequence (O15357 whole entry): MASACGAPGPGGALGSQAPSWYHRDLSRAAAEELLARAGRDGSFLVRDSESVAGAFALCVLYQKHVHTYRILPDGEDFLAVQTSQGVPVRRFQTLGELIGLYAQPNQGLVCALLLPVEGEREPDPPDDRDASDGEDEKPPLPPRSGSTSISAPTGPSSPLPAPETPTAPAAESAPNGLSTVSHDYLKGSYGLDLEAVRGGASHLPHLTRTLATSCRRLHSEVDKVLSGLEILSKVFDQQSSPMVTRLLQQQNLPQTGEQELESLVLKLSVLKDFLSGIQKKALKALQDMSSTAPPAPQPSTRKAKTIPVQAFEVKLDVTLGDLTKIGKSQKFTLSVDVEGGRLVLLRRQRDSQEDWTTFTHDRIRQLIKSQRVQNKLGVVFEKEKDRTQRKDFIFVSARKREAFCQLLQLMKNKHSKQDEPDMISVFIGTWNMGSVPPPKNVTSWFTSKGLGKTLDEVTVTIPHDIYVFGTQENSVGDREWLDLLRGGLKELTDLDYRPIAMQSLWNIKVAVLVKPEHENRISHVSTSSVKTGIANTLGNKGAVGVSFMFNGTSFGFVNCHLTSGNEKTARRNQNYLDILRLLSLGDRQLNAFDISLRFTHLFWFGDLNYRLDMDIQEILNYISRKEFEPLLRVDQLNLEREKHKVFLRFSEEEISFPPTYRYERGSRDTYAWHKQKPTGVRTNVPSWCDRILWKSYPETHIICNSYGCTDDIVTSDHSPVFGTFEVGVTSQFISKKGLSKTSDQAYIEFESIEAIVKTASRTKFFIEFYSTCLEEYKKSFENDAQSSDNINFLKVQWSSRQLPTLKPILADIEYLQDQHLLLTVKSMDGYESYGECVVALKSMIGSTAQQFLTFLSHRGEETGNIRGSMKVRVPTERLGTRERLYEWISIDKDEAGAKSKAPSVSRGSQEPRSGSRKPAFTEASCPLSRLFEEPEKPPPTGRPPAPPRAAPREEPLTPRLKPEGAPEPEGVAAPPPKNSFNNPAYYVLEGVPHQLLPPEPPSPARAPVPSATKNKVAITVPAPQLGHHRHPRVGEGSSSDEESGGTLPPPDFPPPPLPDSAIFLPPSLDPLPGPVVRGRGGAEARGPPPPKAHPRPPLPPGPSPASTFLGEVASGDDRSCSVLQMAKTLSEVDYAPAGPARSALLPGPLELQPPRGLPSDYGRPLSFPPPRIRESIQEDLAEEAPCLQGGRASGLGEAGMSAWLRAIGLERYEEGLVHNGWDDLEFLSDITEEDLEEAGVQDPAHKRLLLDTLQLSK

[2] = target: T1, Phosphatidylinositol 3,4,5-trisphosphate 5-phosphatase 2; experiment: Inhibition of SHIP-2 (unknown origin) using PtdIns(3,4,5)P3 as substrate by malachite green solution based fluorescence polarization analysis

IC50 [1] | Structure (SMILES) | IC50 [2]
116 µM | Cc1oc(-c2ccccc2Cl)nc1Cn1cccc1C1=NC(c2ccccc2)CO1 (stereo not drawn) | 
 | CC(C)CCC[C@@H](C)[C@H]1CC[C@H]2[C@@H]3CC[C@H]4C[C@H](N)CC[C@]4(C)[C@H]3CC[C@]12C | > 1000 µM
> 200 µM | CC(=O)C1=C(C)Nc2sc(C(=O)c3ccc(Cl)c(Cl)c3)c(N)c2C1c1cccnc1 (stereo not drawn) | 

Reference: ChEMBL document CHEMBL6092211, “Discovery and evaluation of novel SHIP-1 inhibitors” (Bioorg Med Chem, 2024)
